Reference: publication PMC6332226, “Potent PPARγ Ligands from Swietenia macrophylla Are Capable of Stimulating Glucose Uptake in Muscle Cells” (Molecules, 2015)

Sequences of proteins named here, by UniProt entry; tags and fusion partners are left off. Residues count along the entry.
UniProt P37231, 135-505: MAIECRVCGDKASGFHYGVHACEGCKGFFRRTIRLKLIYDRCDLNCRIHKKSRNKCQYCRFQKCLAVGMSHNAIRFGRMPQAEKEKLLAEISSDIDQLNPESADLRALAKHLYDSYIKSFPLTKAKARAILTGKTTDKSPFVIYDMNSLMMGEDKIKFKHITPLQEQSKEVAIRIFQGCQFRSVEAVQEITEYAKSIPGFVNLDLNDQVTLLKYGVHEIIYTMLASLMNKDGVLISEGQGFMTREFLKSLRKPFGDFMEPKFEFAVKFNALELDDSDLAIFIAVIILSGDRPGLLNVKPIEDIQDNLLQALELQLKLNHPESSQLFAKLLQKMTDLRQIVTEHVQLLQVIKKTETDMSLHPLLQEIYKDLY

Columns and labels:
recombinant PPARγ = target: T1, recombinant PPARγ (Homo sapiens, UniProt P37231); test: ELISA PPARγ-binding assay (ligand-dependent binding of PPARγ to p300 coactivator); settings: highest binding; p300-coated plate, absorbance 405 nm
T1 construct: amino acid positions 107–477 for PPARγ; His tag (pET28a) (N); made in house; host or cells: E. coli BL21

[1] = tested on: 3T3-L1 preadipocyte cells; test: Adipocyte differentiation assay, Oil Red O staining of lipid droplets; format: cell-based; settings: 200 nM rosiglitazone, day 7
Description: Figure 4 The semi-quantification of lipid droplets produced by differentiated 3T3-L1 cells at day 7 after the compound treatment. The quantification was performed by dissolving the cells in isopropanol and measuring the absorbance read out at 510 nm. […] The symbol ** denotes a significant difference at p < 0.01 compared with DMSO (Tukey’s test, n = 3).
3T3-L1 and C2C12 cells were purchased from the American Type Culture Collection (Manassas, VA, USA). The 3T3-L1 and C2C12 cells were maintained in DMEM medium supplemented with 10% (v/v) bovine serum and 10% (v/v) fetal bovine serum (FBS), respectively. The differentiation of adipocytes was initiated two days after the cells reached confluence by adding 0.5 mM isobutyl methylxanthine (IBMX), 1 µM dexamethasone and 1 µg/mL insulin to DMEM containing 10% (v/v) FBS. Two days later, the differentiation medium was replaced by DMEM containing 10% (v/v) FBS and 1 µg/mL insulin. These differentiated cells were stabilized in DMEM + 10% (v/v) FBS for another 2 days. […]
Adipocyte differentiation is one of the major cellular responses upon PPARγ activation. […] The trapped ORO between the lipid droplets was then dissolved in absolute isopropanol, and the absorbance of the dissolved ORO was semi-quantitatively measured by a SpectraMax M5 multi-detection microplate reader (Molecular Devices) at a wavelength of 510 nm.

[2] = tested on: differentiated 3T3-L1 adipocyte cells; test: mRNA expression of PPARγ and adipogenic markers by quantitative RT-PCR; format: cell-based; settings: 50 nM rosiglitazone, 7 days, vs DMSO
Description: Figure 5 The analysis of PPARγ and selected adipogenic gene expression in differentiated 3T3-L1 adipocyte cells with quantitative RT-PCR. […] The expression values were normalized against a housekeeping gene, β-actin.
For the gene expression study, mature 3T3-L1 adipocytes were lysed 7 days after the induction of cellular differentiation. The total RNA samples were prepared according to the manufacturer's protocol (TRIzol reagent, Invitrogen Life Technologies, Carlsbad, CA, USA). The mRNA expression of the target genes was measured by quantitative RT-PCR with an iCycler iQ5 PCR Thermal Cycler (Bio-Rad Laboratories, Hercules, CA, USA). The primers for the adipogenesis-related genes, adiponectin, adipsin, GLUT4 and PPARγ, were designed using Primer 3 software (Table 1). Real-time PCR was performed according to the manufacturer’s protocol (SYBR-Green One-Step Quantitative RT-PCR). Briefly, 5 ng of total RNA, 50 nM of each primer, iScript RT enzyme and the universal SYBR Green reaction mix (Bio-Rad Laboratories) were mixed well in a final volume of 30 µL. All the PCR reactions were performed as follows: 1 cycle of 50 °C for 2 min and 95 °C for 10 min, followed by 40 cycles of 95 °C for 15 s and 60 °C for 1 min. The PCR products were subjected to a melting-curve analysis. […]

## CN(CCOc1ccc(CC2SC(=O)NC2=O)cc1)c1ccccn1 (stereo not drawn) [Rosiglitazone, rosiglitazone, reference compound]
Recombinant PPARγ
  fold increase of binding between PPARγ and coactivator compared to vehicle (DMSO): 9 fold
[1]
  ORO stained lipid droplets, fold higher than vehicle (DMSO): 2.8 fold
[2]
  PPARγ mRNA expression, fold elevation: five- to six
